Assay results from a flash point compilation (Sun et al. 2020).

Legend:
[1] = not given; remark: listed apart in the source

Row | flash point | flash point [1] | SMILES
1 | 182.00 °C | – | OCCOCCOCCOCCO [2-[2-[2-(2-hydroxyethoxy)ethoxy]ethoxy]ethanol] [listing 1 of 2 here]
2 | – | 204.44 °C | OCCOCCOCCOCCO [2-[2-[2-(2-hydroxyethoxy)ethoxy]ethoxy]ethanol] [listing 2 of 2 here]
3 | -45.00 °C | – | CCl [chloromethane]

Row | SMILES | flash point | flash point [1]
4 | CCOc1nc(C(Cl)(Cl)Cl)ns1 [5-ethoxy-3-(trichloromethyl)-1,2,4-thiadiazole] | 154.00 °C | –
